B1: peptide mimicking the C-terminal portion of TMEM88 (residues 153-159, TSGKVWV), dansylated at its N-terminus (peptide)
peptide: TSGKVWV
modifications: dansyl group covalently linked to its N-terminus
notes: C-terminal portion of TMEM88, residues 153 to 159
B2: DVL1 PDZ domain (domain or fragment)
chain: LNIVTVTLNMERHHFLGISIVGQSNDRGDGGIYIGSIMKGGAVAADGRIEPGDMLLQVNDVNFENMSNDDAVRVLREIVSQTGPISLTVAKCWDP

What all share (conditions): both partners purified
The experiment “DVL1 PDZ domain” has as its target B2. The experiment in a line: other fluorescence titration; equilibrium binding in solution; 1 uM dansyl-peptide constant, DVL1 PDZ domain 2-38 uM; FRET emission (excitation 280 nm, fitted at 540 nm), hyperbolic fit; sodium phosphate 50 mM, DMSO 20% v/v, pH 7.2, 25 °C; no compound.
The target of experiment [1] is B1. The experiment in a line: other fluorescence titration; as a1, in the presence of a constant 1 uM of the small molecule (S)-1.
Experiment [2] has as its target B1. The experiment is described as follows: other fluorescence titration; as a1, in the presence of a constant 1 uM of the small molecule (R)-1.

In the experiment with DVL1 PDZ domain, B1 showed a Kd of 11.5 ± 0.5 µM.

For B2, the “Kd in the presence of 1 µM of the small-molecule inhibitor (S)-1” value in experiment [1] was determined as 20.8 ± 0.5 µM. Also, in experiment [2], the “Kd in the presence of 1 µM of the small molecule (R)-1” value was 12.3 ± 0.6 µM.

The values above are taken from paper PMC8909805, “Anticancer Activity of (S)-5-Chloro-3-((3,5-dimethylphenyl)sulfonyl)-N-(1-oxo-1-((pyridin-4-ylmethyl)amino)propan-2-yl)-1H-indole-2-carboxamide (RS4690), a New Dishevelled 1 Inhibitor” (Cancers, 2022).
